Yeast UUG start – alters start codon recognition fidelity in yeast; S. cerevisiae UUG-firefly luciferase reporter, luminescence/redox ratio; activity score, % at 18.7 µM; actives 0.13% (n = 350,000); AID 602363;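 active = replicate mean at a twofold rise or more, about +100% in these data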;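 also: firefly luciferase made from a UUG start codon reports start codon fidelity; reporter light over untreated wells divided by growth signal over untreated wells; some hits fall short of that in this replicate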
SMARCA2 activ – SMARCA2 function activation, primary screen; MG213 cells, MMTV-luciferase reporter, dexamethasone, overnight; activation, % at 9.1 µM; actives 1% (n = 370,000); AID 652017; in the data active means activation above about 7.8%
ERp5 inh – blocks human ERp5 reductase activity on insulin; ERp5 insulin aggregation, absorbance 650 nm, 90 min; inhibition, % at 9.99 µM; actives 0.05% (n = 350,000);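 active means mean replicate inhibition above about 25%, with every replicate also reaching it, limit read from the data, passing the limit was not always enough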
INS-1E GSIS act – primary screen for activators of insulin secretion dependent on glucose, INS-1E cells, GLuc reporter luminescence | INS-1E GLuc reporter insulin secretion, 2-3 h | activation, % at 16.6 µM | actives 0.61% (n = 370,000) | AID 743287;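 active means lowest replicate activation of at least 40%, so every replicate reaches that level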
PDI turbidity – PDI (human) enzyme inhibition; PDI insulin aggregation turbidity, A650, 90 min; inhibition, % at 10 µM; AID 588391; actives 0.052% (n = 350,000);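 active means mean inhibition across replicates of 30% or more, whatever share of single replicates reach that level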
Rev-erbA mod – Rev-erb alpha (human) modulation. P20393. Rev-erbα–FITC-DNA binding, fluorescence polarization, 90 min. activity, % at 10 µM. actives 0.79% (n = 370,000). AID 1259318;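 active means activity above about 14%, limit read from the data; passing the limit was not always enough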
Rev-erbA confirm – Rev-erb alpha (human) modulation, hit confirmation | shares compounds with Rev-erbA mod | Rev-erb alpha FITC-DNA binding, fluorescence polarization, 90 min | activation, % at 25 µM | actives 61% (n = 3,000);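 active means activation at or above a set limit, or at least 3 SD above the negative control mean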
RORg DNA counter – affects RORgamma DNA binding in a Rev-erb alpha counter-screen | shares compounds with Rev-erbA mod | purified RORgamma protein-FITC-DNA binding, fluorescence polarization | IC50, µM | actives 8% (n = 910);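 active means Compounds whose fitted half-maximal concentration for disrupting protein-DNA binding is below 10 micromolar; the record names Rev-erb in its text, so the target is in doubt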
Hits are given with their value. An excerpt weighted towards active compounds, which were near 2.1% of everything screened.

CCNC(=O)[C@H]1[C@H](CO)[C@H]2Cn3c(ccc(C4=CCCC4)c3=O)[C@@H]1N2C(=O)C1CC1 was read as ERp5 inh inactive and INS-1E GSIS act inactive.
`O=C(CC1CC1)N1CC(=O)N2[C@@H](CO)[C@H](c3ccc(C#Cc4ccccc4)cc3)[C@@H]2C1` gave ERp5 inh inactive and INS-1E GSIS act inactive.
`Cc1ccc(N=Nc2c(=O)[nH]n3c(C)cc(C)nc23)cc1` gave SMARCA2 activ inactive, INS-1E GSIS act inactive, PDI turbidity inactive, Rev-erbA mod 17 and Rev-erbA confirm inactive.
C[C@H](CO)N1C[C@H](C)[C@@H](CN(C)C(=O)NC2CCCCC2)Oc2ncc(C#CCN(C)C)cc2C1=O was read as Yeast UUG start inactive, ERp5 inh inactive and INS-1E GSIS act inactive.
Screening COc1ccc(NC(=O)N(C)C[C@@H]2OCCCC[C@H](C)Oc3ccc(NC(=O)Cc4ccccc4)cc3C(=O)N([C@H](C)CO)C[C@@H]2C)cc1 returned Yeast UUG start inactive, ERp5 inh inactive and INS-1E GSIS act inactive.
Screening CN1C(=O)c2cccc3c(Cl)ccc(c23)C1=O returned Yeast UUG start inactive, SMARCA2 activ inactive, PDI turbidity inactive and Rev-erbA mod inactive.
`CN1C(=O)c2cccc3c(N(C)C)ccc(c23)C1=O` gave Yeast UUG start inactive, SMARCA2 activ inactive, ERp5 inh inactive, INS-1E GSIS act inactive, PDI turbidity inactive, Rev-erbA mod 27 and Rev-erbA confirm 29.
Screening CNc1ccc2c3c(cccc13)C(=O)N(C)C2=O returned SMARCA2 activ inactive, ERp5 inh inactive, INS-1E GSIS act inactive, PDI turbidity inactive, Rev-erbA mod 382, Rev-erbA confirm 339 and RORg DNA counter inactive.
For C[C@@H](O)C#Cc1cnc2c(c1)C(=O)N([C@@H](C)CO)C[C@H](C)[C@@H](CN(C)Cc1cccc(F)c1)O2 the results were Yeast UUG start inactive, ERp5 inh inactive and INS-1E GSIS act inactive.
Screening CCc1ccc(CNC(=O)CCCn2c(=O)c3cccn3c3cccnc32)cc1 returned Yeast UUG start inactive, SMARCA2 activ inactive, ERp5 inh inactive, INS-1E GSIS act inactive, PDI turbidity inactive and Rev-erbA mod inactive.
Screening O=C(CCn1c(=O)c2cccn2c2cccnc21)NCc1cccc(Cl)c1 returned Yeast UUG start inactive, SMARCA2 activ inactive, ERp5 inh inactive, INS-1E GSIS act inactive, PDI turbidity inactive, Rev-erbA mod 64, Rev-erbA confirm 64 and RORg DNA counter 4.3.
For O=C(CCCn1c(=O)c2cccn2c2cccnc21)NCc1cccc(Br)c1 the results were Yeast UUG start inactive, SMARCA2 activ inactive, ERp5 inh inactive, INS-1E GSIS act inactive, PDI turbidity inactive, Rev-erbA mod 45 and Rev-erbA confirm 19.
Screening O=C(CCCn1c(=O)c2cccn2c2cccnc21)NCCc1ccc(Cl)cc1 returned Yeast UUG start inactive, SMARCA2 activ inactive, ERp5 inh inactive, INS-1E GSIS act inactive, PDI turbidity inactive and Rev-erbA mod inactive.
For COc1ccccc1-c1ccc2n(c1=O)C[C@@H]1[C@@H](CO)[C@H](C(=O)N3CCN(C)CC3)[C@H]2N1CC1CC1 the results were ERp5 inh inactive and INS-1E GSIS act inactive.
Screening CCOc1ccc(C(=O)Nc2ccc(C(F)(F)F)n(C)c2=O)cc1 returned Yeast UUG start inactive, SMARCA2 activ inactive, ERp5 inh inactive, INS-1E GSIS act inactive, PDI turbidity inactive, Rev-erbA mod 35 and Rev-erbA confirm inactive.
Screening C[C@@H]1CN([C@@H](C)CO)S(=O)(=O)c2ccc(C#CCN(C)C)cc2O[C@H]1CN(C)C(=O)C1CCC1 returned Yeast UUG start inactive, ERp5 inh inactive and INS-1E GSIS act inactive.
Screening Cc1nn2c(N)c(C#N)cnc2c1-c1ccc(Cl)cc1 returned Yeast UUG start inactive, SMARCA2 activ inactive, PDI turbidity inactive, Rev-erbA mod 51, Rev-erbA confirm 34 and RORg DNA counter inactive.

Source: PubChem BioAssay
